Antibody variant affinities, Ab-14 light chain, assay B

Source: Li et al. 2023 (doi:10.1038/s41467-023-39022-2), MIT Lincoln Laboratory and A-Alpha Bio; data file from the FLAb repository.

Antigen: PDVDLGDISGINAS, a 14-residue peptide of the SARS-CoV-2 spike HR2 region.

The variants keep the heavy chain, the linker and the frameworks of Ab-14 (scFv order VH, a 15-residue (Gly4Ser)3 linker, VL).
VH: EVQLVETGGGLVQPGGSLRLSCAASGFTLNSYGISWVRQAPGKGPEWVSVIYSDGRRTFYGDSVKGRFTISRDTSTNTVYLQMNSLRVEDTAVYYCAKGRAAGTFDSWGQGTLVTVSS
VL: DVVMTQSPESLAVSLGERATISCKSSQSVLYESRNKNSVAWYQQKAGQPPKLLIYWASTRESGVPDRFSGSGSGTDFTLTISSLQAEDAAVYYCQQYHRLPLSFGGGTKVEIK

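The starting antibody came from a phage panning campaign against this peptide. These sequences belong to a second round, designed from the earlier measurements on random variants of the parent. Their group label is 14L_GP_HC (GP: Gaussian process model; HC: hill climbing; a sequence that several methods proposed may carry one label only). In AlphaSeq, yeast of one mating type display the scFv and yeast of the other type display the target. The frequency of each diploid, read from paired DNA barcodes, reflects how well the two displayed proteins bind. A regression on co-assayed BCL2-family reference pairs converts the normalised counts of each replicate to an apparent Kd. The assay was run in six technical replicates.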

Positions count from residue 1 of the parent VL; S25Q puts Q in place of S. Values are log10 of the apparent Kd in nM; lower means stronger binding. A pair that was not seen in that replicate is written "ND"; this usually means weak binding, but a binder can also be missed.

{"changes": "S25Q Y31M K36C W56D H98V", "replicates, log10 nM": "0.07 -0.24 -0.12 -0.17 -0.18 0.20", "empty controls": "0/18"}
{"changes": "S25L S26R V29T T59Q E61L", "replicates, log10 nM": "1.05 1.01 0.93 0.62 0.69 0.68", "empty controls": "0/18"}
{"changes": "S25L S26R V29T L30K K36Q W56Q", "replicates, log10 nM": "0.33 0.16 0.28 0.09 0.18 0.15", "empty controls": "1/18 (2.68)"}
{"changes": "S25L V29E Y31F W56D", "replicates, log10 nM": "-0.23 -0.36 -0.42 -0.50 -0.22 -0.06", "empty controls": "1/18 (2.20)"}
{"changes": "S25Y Q27P V29Y W56Q", "replicates, log10 nM": "0.42 0.43 0.31 0.11 0.21 0.47", "empty controls": "2/18 (2.58)"}
{"changes": "K24H Q27P K36F S38N W56N", "replicates, log10 nM": "-0.20 -0.27 -0.35 -0.37 -0.39 -0.53", "empty controls": "1/18 (3.11)"}
{"changes": "S25L S26R V29T S38Q", "replicates, log10 nM": "1.95 2.47 ND ND ND 3.23", "empty controls": "3/18 (2.22)"}
{"changes": "R34G W56N S62D", "replicates, log10 nM": "-0.40 -0.18 -0.04 0.35 -0.30 0.31", "empty controls": "0/18"}
{"changes": "S25V S26L V29Q L30E W56H S62D", "replicates, log10 nM": "0.97 0.73 0.30 0.01 0.82 0.52", "empty controls": "0/18"}
{"changes": "S25L V29T E32D W56N", "replicates, log10 nM": "-0.09 -0.01 -0.21 -0.19 -0.11 0.24", "empty controls": "2/18 (3.13)"}
{"changes": "K24H Q27P V29C W56N", "replicates, log10 nM": "0.45 0.94 0.72 0.36 0.90 1.03", "empty controls": "1/18 (2.06)"}
{"changes": "Q27I V29Y R34L W56N A57G", "replicates, log10 nM": "0.35 0.23 0.32 0.32 0.36 0.46", "empty controls": "3/18 (3.67)"}
{"changes": "S25C V29D W56D", "replicates, log10 nM": "0.84 0.24 0.76 0.13 0.39 0.33", "empty controls": "0/18"}
{"changes": "Y31F E32Q W56D S62Q", "replicates, log10 nM": "0.23 0.18 0.07 0.05 0.16 0.26", "empty controls": "0/18"}
{"changes": "V29W W56G S62Q", "replicates, log10 nM": "1.11 1.18 1.53 ND ND ND", "empty controls": "0/18"}
{"changes": "S25L S26D S28Q V29T S33T W56Q S62E", "replicates, log10 nM": "-0.38 -0.59 -0.14 -0.73 -0.80 -0.28", "empty controls": "1/18 (1.48)"}
{"changes": "Q27W S28V V29Y W56G", "replicates, log10 nM": "0.86 0.82 1.07 0.81 -0.03 0.69", "empty controls": "1/18 (1.52)"}
{"changes": "S25L W56D L102S", "replicates, log10 nM": "0.38 0.71 0.48 0.44 0.38 0.57", "empty controls": "1/18 (2.79)"}
{"changes": "Q27I V29Y Y31G E32L S33K W56E", "replicates, log10 nM": "0.73 1.31 0.38 0.86 0.73 0.76", "empty controls": "1/18 (2.59)"}
{"changes": "S25Q S26L N35D W56H S62D", "replicates, log10 nM": "0.47 0.27 0.31 -0.05 0.21 0.42", "empty controls": "1/18 (3.58)"}
{"changes": "Q27P V29Y Y31G S33K W56E", "replicates, log10 nM": "1.03 0.31 0.25 0.31 1.27 0.47", "empty controls": "1/18 (1.43)"}

Top 3 of the variants detected in all replicates, tightest first:

| changes | replicates, log10 nM | empty controls |
|---|---|---|
| S25L S26D S28Q V29T S33T W56Q S62E | -0.38 -0.59 -0.14 -0.73 -0.80 -0.28 | 1/18 (1.48) |
| K24H Q27P K36F S38N W56N | -0.20 -0.27 -0.35 -0.37 -0.39 -0.53 | 1/18 (3.11) |
| S25L V29E Y31F W56D | -0.23 -0.36 -0.42 -0.50 -0.22 -0.06 | 1/18 (2.20) |

Values of this round are not directly comparable with the first-round values of the same sequences. Three control strains display no target. For all light chain designs, 4% of the pairings with them gave a signal, with a median of 2.64 and one signal in twenty below 1.59, so weak values seen in few replicates may be background. The control count says in how many pairings with the empty strains this scFv gave a signal, with their mean in brackets. The authors' rule: three or more of the six replicates give a measured affinity, fewer mean a poor binder.